From PubChem BioAssay AID1259415 (National Center for Advancing Translational Sciences (NCATS), 2018)
This is a selection; strong and weak results do not stand in their true shares. Some results for these compounds are left out of this collection, so the calls shown say nothing about other tests. Records with an inconclusive call do not appear. The source made the active and inactive calls. Rule as the data show it: active = activity change below about -60%; inconclusive = no clear call, values can overlap the other calls; inactive = above about -39%.

Assay: qHTS Assay for inhibitors of the human cytomegalovirus (HCMV)
Details: HFF cells, HCMV-luciferase reporter, 72 h; at 57.5 µM; active compounds read low
Excerpt: NCGC Assay Overview: Infection with human cytomegalovirus (HCMV) continues to pose significant threats for pregnant women and immunocompromised hosts. HCMV causes serious morbidity and mortality in transplant recipients, and congenital HCMV is the leading infectious cause of mental retardation and deafness in children. In the 1990s, the annual costs associated with the disease burden of congenital CMV were estimated at around $2 billion. A HCMV vaccine is not available yet and HCMV therapies result in intolerable side effects and emergence of drug resistant viruses. […] Towards this goal we have developed and characterized a luciferase HCMV reporter that was initially used in 96 well plates and then optimized to 1536-well plates for utilization in screening of the MLSMR collection, the NGCG diversity collection and the NCGC Pharmaceutical Collection of approved and investigational drugs.
NCGC Assay Protocol Summary:
This is a cell-based assay for HCMV inhibition in HFFs cells. The screening used 2 compound doses and the HCMV-luciferase at MOI of 1 PFU/cell. Cells were treated and infected with HCMV. At 72 h post infection cell lysates were collected and luciferase activity was determined using the Glomax-Multi + Detection System (Promega, Madison, WI). Data were normalized to the controls for basal activity (buffer only) and known HCMV inhibitors Salinmoycin.
1536-well assay protocol for the assay:
(1) Add 3 ul CMV/HFF cell culture. 1000 cells/well in DMEM nirmal media.
(2) Incubate 16 hr at 37C.
(3) Add 23 nl control compound, 10uM of Salinomycin.
(4) Add 23 nl compounds in DMSO solution.
(5) Add 3 ul CMV suspension. Final 1 puf/ul, Virus stock 2000pfu/ul
(6) Incubate 72 hrs at 37C.
(7) Add 4 ul OneGlo Luc Reagent.
(8) Incubate 5 min at room temperature.
% is scaled to controls: 0 for no effect and ±100 for the full control effect.

Row | SMILES | activity change, negative = inhibition
1 | CCCCOc1ccccc1C(=O)NCC1(N(C)C)CCCCC1 | inactive: -26.2%
2 | CN(C)C1(CNC(=O)c2ccccc2[N+](=O)[O-])CCCCC1 | inactive: 6.29%
3 | Cc1ccccc1C(=O)NCC1(N2CCCCC2)CCCCC1 | inactive: -20.6%
4 | CN(C)C1CCCC1OC(=O)C(O)(c1ccccc1)c1ccccc1 (centres undefined) | inactive: 10.9%
5 | CN(C)c1ccc(C(=O)NCC2(N(C)C)CCCCC2)cc1 | inactive: 14.4%
6 | Cc1cc(C(=O)NCC2(N3CCCCC3)CCCCC2)ccc1[N+](=O)[O-] | inactive: 14.5%
7 | CCN1CCCC(OC(=O)C2(O)c3ccccc3C=Cc3ccccc32)C1 (centres undefined) | inactive: -9.91%
8 | COc1ccc(C(=O)NCC2(N(C)C)CCCCC2)cc1 | inactive: -33%
9 | CCOc1cccc(C(=O)NCC2(N(C)C)CCCCC2)c1 | inactive: 4.75%
10 | C=CCN1CCN(CCOC(=O)C(O)(c2ccccc2)c2ccccc2)CC1 | inactive: -32.9%
11 | O=C(NCC1(N2CCCCC2)CCCCC1)c1cc(F)c(F)cc1Cl | inactive: -17.9%
12 | CN1[C@@H]2CC[C@H]1CC(OC(=O)C(O)(c1ccccc1)c1ccccc1)C2 (some centres undefined) | inactive: 24.4%
13 | O=C(NCC1(N2CCCCC2)CCCCC1)c1cc([N+](=O)[O-])ccc1Cl | inactive: -32%
14 | CN(C)C1(CNC(=O)c2ccccc2F)CCCCC1 | inactive: 14.8%
15 | Cc1ccc(C(=O)NCC2(N3CCCCC3)CCCCC2)cc1 | inactive: -4.65%
16 | CC(C)N1C(=O)CC2(CCN(CCOC(=O)C(O)(c3ccccc3)c3ccccc3)CC2)C1=O | inactive: -26.6%
17 | CN(C)C1(CNC(=O)c2cccc(Cl)c2)CCCCC1 | inactive: -7.37%

Row | SMILES | activity change, negative = inhibition
18 | CCN(CC)CC(C)C(C)OC(=O)C(O)(c1ccccc1)c1ccccc1 (centres undefined) | inactive: -20.5%
19 | COc1cc(SC)ccc1C(=O)NCC1(N(C)C)CCCCC1 | inactive: 40.8%
20 | CC(C)COc1ccc(C(=O)NCC2(N(C)C)CCCCC2)cc1 | inactive: -24.1%
21 | O=C(OC1CN2CCC1CC2)C(CO)(c1ccccc1)c1ccccc1 (centres undefined) | inactive: -9.3%
22 | COc1cccc(C(=O)NCC2(N3CCOCC3)CCCCC2)c1 | inactive: 27.1%
23 | CN(C)c1cccc(C(=O)NCC2(N(C)C)CCCCC2)c1 | inactive: -6.81%
24 | O=C(OCCN1CCCC1)C(O)(c1ccccc1)c1ccccc1 | inactive: -19.5%
25 | COc1cc(C(=O)NCC2(N(C)C)CCCCC2)cc(OC)c1OC | inactive: 20.1%
26 | Cc1cccc(C(=O)NCC2(N(C)C)CCCCC2)c1 | inactive: 4.88%
27 | COc1ccc(Br)c(C(=O)NCC2(N3CCCCC3)CCCCC2)c1 | inactive: -32.8%
28 | C=C(C)C#CC(O)(C(=O)OC1CCN(C)CC1)c1ccccc1 (centres undefined) | inactive: 5.81%
29 | COc1cc(C(=O)NCC2(N(C)C)CCCCC2)c([N+](=O)[O-])cc1OC | inactive: -34.6%
30 | CN(C)C1(CNC(=O)c2ccc(Br)cc2)CCCCC1 | inactive: -34.3%
31 | O=C(NCC1(N2CCCCC2)CCCCC1)c1cccc(Cl)c1 | inactive: -7.18%
32 | COc1ccc(C(=O)NCC2(N(C)C)CCCCC2)cc1Cl | inactive: -8.62%
33 | COc1cccc(C(=O)NCC2(N3CCCCC3)CCCCC2)c1 | inactive: 12.1%
34 | COc1ccc(Cl)cc1C(=O)NCC1(N(C)C)CCCCC1 | inactive: 14.3%
